From ChEMBL document CHEMBL1148364, “Structure-based design, synthesis, and structure-activity relationship studies of novel non-nucleoside adenosine deaminase inhibitors” (J Med Chem, 2004)

molecular target: T1, Adenosine deaminase (Homo sapiens, UniProt P00813)
T1 sequence (P00813 whole entry): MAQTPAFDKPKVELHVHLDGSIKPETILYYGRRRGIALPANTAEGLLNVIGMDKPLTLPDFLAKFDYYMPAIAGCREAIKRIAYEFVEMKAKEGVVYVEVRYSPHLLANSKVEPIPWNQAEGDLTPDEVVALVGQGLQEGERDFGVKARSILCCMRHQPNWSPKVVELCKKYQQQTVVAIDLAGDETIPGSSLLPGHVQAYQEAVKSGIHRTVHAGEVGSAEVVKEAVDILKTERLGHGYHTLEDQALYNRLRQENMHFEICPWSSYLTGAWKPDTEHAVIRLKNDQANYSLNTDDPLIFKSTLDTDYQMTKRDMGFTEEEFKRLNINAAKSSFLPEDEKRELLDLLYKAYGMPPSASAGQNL

Structure (SMILES) | Ki [nM]
NC(=O)c1cn([C@@H](CO)CCn2ccc3ccc(NC(=O)CCCCc4ccccc4)cc32)cn1 | 11
NC(=O)c1cn([C@@H](CO)CCn2ccc3ccc(NC(=O)NCc4ccccc4)cc32)cn1 | 7.5
NC(=O)c1cn([C@@H](CO)CCn2ccc3ccc(NC(=O)CCc4ccccc4)cc32)cn1 | 30
